Assay results reported in patent US7398161B2, “Sampling method and sampling device, and logD measuring method and logD measuring system” (Banyu Pharmaceutical Co., Ltd., priority 2004, dated 2008).

Test: logD measurement by sampling of octanol/buffer two-layer sample with plug liquid, HPLC and mass spectrometer
Conditions: octanol/buffer solution; average of three measurements (only one measurement for amiodarone)

Imipramine
logD, Measured value: 2.7
